Where two headings read alike, the source gives them in different places.
Columns and labels:
Experiment in all cases: biochemical
Type in all cases: binding
[1] = molecular target: HLA-B*1801 (Homo sapiens, UniProt P01889, A329T/A93T/A95T/C349S/D201E/D54G/D98Y/E176V/E187T/E204Q/E69T/K202T/Q94N/R155S/R180L/S121R/V306I/Y140S/Y195H/Y33H/Y91S)
[2] = molecular target: HLA-B*4402 (Homo sapiens, UniProt P01889, A223V/A65T/A93T/A95T/D201E/D98Y/E176V/E187L/E204Q/E69K/G107R/H137Y/K202T/L105A/L119I/N104T/N87E/Q56L/Q94N/R106L/R155S/R180D/S101N/S121R/S35A/S48T/T118I/V36M/W191S/Y140D/Y91S)
[3] = molecular target: HLA-B*4403 (Homo sapiens, UniProt P01889, A223V/A65T/A93T/A95T/D201E/D98Y/E176V/E187L/E204Q/E69K/G107R/H137Y/K202T/L105A/L119I/N104T/N87E/Q56L/Q94N/R106L/R155S/R180L/S101N/S121R/S35A/S48T/T118I/V36M/W191S/Y140D/Y91S)
[4] = molecular target: HLA-B*4001 (Homo sapiens, UniProt P01889, A65T/A93T/A95T/D138N/D98Y/E176V/E69K/N87E/Q56L/Q94N/R180L/S121R/S35A/S48T/T167S/V36M/W171L/Y33H/Y91S)
[5] = molecular target: HLA-B*4501 (Homo sapiens, UniProt P01889, A329T/A65T/A93T/A95T/C349S/D138N/D201E/D98Y/E176V/E187L/E204Q/E69K/H137Y/K202T/L119W/N87E/Q56L/Q94N/R155S/R180D/S121R/S35A/S48T/V127L/V306I/V36M/W191S/Y140L/Y33H/Y91S); settings: B*4501
[6] = molecular target: HLA-B*4002 (Homo sapiens, UniProt P01889, A65T/A93T/A95T/D138N/D201E/D98Y/E176V/E204Q/E69K/K202T/N87E/Q56L/Q94N/R180L/S48T/Y33H/Y91S); settings: B*4002

| Molecule | IC50 ([1]; B*1801) [nM] | IC50 ([2]; B*4402) [nM] | IC50 ([3]; B*4403) [nM] | IC50 ([4]; B*4001) [nM] | IC50 [5] [µM] | IC50 [6] [nM] | IC50 ([1]; read-out: B*1801) [nM] | IC50 ([2]; read-out: B*4402) [nM] | IC50 ([3]; read-out: B*4403) [nM] | IC50 ([4]; read-out: B*4001) [nM] |
| --- | --- | --- | --- | --- | --- | --- | --- | --- | --- | --- |
| CSCC[C@H](N)C(=O)N[C@@H](CCC(=O)O)C(=O)N[C@@H](CC(C)C)C(=O)N[C@@H](C)C(=O)N[C@@H](C)C(=O)N[C@@H](CC(C)C)C(=O)N[C@@H](CS)C(=O)N[C@@H](CCCNC(=N)N)C(=O)N[C@@H](Cc1c[nH]c2ccccc12)C(=O)O | 7 | 16 | 9.9 | 4830 |  |  |  |  |  |  |
| CC(C)C[C@H](NC(=O)[C@H](Cc1ccc(O)cc1)NC(=O)[C@@H](NC(=O)[C@@H](NC(=O)[C@H](CC(N)=O)NC(=O)[C@H](CCC(N)=O)NC(=O)[C@H](C)NC(=O)[C@H](CCC(=O)O)NC(=O)[C@@H]1CCCN1)[C@@H](C)O)[C@@H](C)O)C(=O)N[C@@H](Cc1c[nH]c2ccccc12)C(=O)O |  |  | 21200 | > 9250 | > 28.7 | > 12600 |  |  |  |  |
| CC(C)C[C@H](NC(=O)[C@H](Cc1ccc(O)cc1)NC(=O)[C@@H](NC(=O)[C@@H](NC(=O)[C@H](CC(N)=O)NC(=O)[C@H](CCC(N)=O)NC(=O)[C@H](C)NC(=O)[C@H](CCC(=O)O)NC(=O)[C@@H]1CCCN1)[C@@H](C)O)[C@@H](C)O)C(=O)N[C@@H](Cc1c[nH]c2ccccc12)C(=O)N[C@@H](Cc1c[nH]c2ccccc12)C(=O)N[C@H](C(=O)O)C(C)C |  | 5.1 | 3.3 | 1690 |  | 646 |  |  |  |  |
| CC(C)C[C@H](NC(=O)[C@H](Cc1ccc(O)cc1)NC(=O)[C@@H](NC(=O)[C@H](C)NC(=O)[C@H](CC(=O)O)NC(=O)[C@H](CCC(N)=O)NC(=O)[C@@H](NC(=O)[C@H](CCC(=O)O)NC(=O)[C@@H]1CCCN1)[C@@H](C)O)[C@@H](C)O)C(=O)O | 9470 | > 34600 | 301 | 1240 |  | 33700 |  |  |  |  |
| CC[C@H](C)[C@H](NC(=O)[C@H](CCC(=O)O)NC(=O)[C@@H](NC(=O)[C@H](CC(C)C)NC(=O)[C@H](CO)NC(=O)[C@H](CCCNC(=N)N)NC(=O)[C@H](CC(C)C)NC(=O)[C@H](CCC(N)=O)NC(=O)[C@H](CC(C)C)NC(=O)[C@H](CCC(=O)O)NC(=O)[C@@H](N)CCCNC(=N)N)[C@@H](C)O)C(=O)N[C@@H](CC(C)C)C(=O)O | 5950 | 3780 | 1.1 | 151 |  | 600 |  |  |  |  |
| CSCC[C@H](NC(=O)[C@H](CCCNC(=N)N)NC(=O)[C@H](CO)NC(=O)[C@H](Cc1ccccc1)NC(=O)[C@H](CCC(=O)O)NC(=O)[C@@H](N)CO)C(=O)N[C@@H](C)C(=O)N[C@@H](CCCNC(=N)N)C(=O)N[C@@H](CC(=O)O)C(=O)N1CCC[C@H]1C(=O)N[C@@H](CCC(N)=O)C(=O)N[C@@H](CCCNC(=N)N)C(=O)N[C@@H](Cc1ccccc1)C(=O)O | 61 | 23 | 12 | 350 |  | 57 |  |  |  |  |
| CC[C@H](C)[C@H](NC(=O)[C@@H]1CCCN1C(=O)[C@@H](NC(=O)[C@H](CCCCN)NC(=O)CNC(=O)CNC(=O)[C@H](CC(=O)O)NC(=O)[C@H](C)NC(=O)[C@H](Cc1c[nH]cn1)NC(=O)[C@H](Cc1ccc(O)cc1)NC(=O)[C@H](CCC(=O)O)NC(=O)[C@@H](N)[C@@H](C)O)C(C)C)C(=O)O | 680 |  | 61 | 22 |  | 4.4 |  |  |  |  |
| CC[C@H](C)[C@H](NC(=O)[C@H](Cc1ccc(O)cc1)NC(=O)[C@H](CC(C)C)NC(=O)[C@H](Cc1c[nH]cn1)NC(=O)[C@H](CO)NC(=O)[C@@H](NC(=O)[C@@H]1CCCN1C(=O)[C@@H](NC(=O)[C@@H](NC(=O)[C@H](CCC(=O)O)NC(=O)[C@@H](N)C(C)C)C(C)C)C(C)C)[C@@H](C)CC)C(=O)N[C@@H](CC(C)C)C(=O)O | 266 | 486 | 4 | 3.4 |  |  |  |  |  |  |
| CSCC[C@H](NC(=O)[C@H](CO)NC(=O)[C@H](CC(C)C)NC(=O)[C@H](CCC(=O)O)NC(=O)[C@H](CCC(=O)O)NC(=O)[C@@H](N)Cc1c[nH]c2ccccc12)C(=O)N[C@@H](CC(C)C)C(=O)O [WEELSML] |  | > 28500 | 151 |  | 82 |  |  |  |  |  |
| SENDRYRIL |  |  |  |  |  |  | 18300 | 183 | 164 | 271 |

Reference: patent US20060079453A1, “Hla binding peptides and their uses” (priority 2002, published 2006)
